{
  "sequences": {"note": "The chains behind the UniProt entries cited, without tags or fusion partners.", "UniProt P08913, whole entry": "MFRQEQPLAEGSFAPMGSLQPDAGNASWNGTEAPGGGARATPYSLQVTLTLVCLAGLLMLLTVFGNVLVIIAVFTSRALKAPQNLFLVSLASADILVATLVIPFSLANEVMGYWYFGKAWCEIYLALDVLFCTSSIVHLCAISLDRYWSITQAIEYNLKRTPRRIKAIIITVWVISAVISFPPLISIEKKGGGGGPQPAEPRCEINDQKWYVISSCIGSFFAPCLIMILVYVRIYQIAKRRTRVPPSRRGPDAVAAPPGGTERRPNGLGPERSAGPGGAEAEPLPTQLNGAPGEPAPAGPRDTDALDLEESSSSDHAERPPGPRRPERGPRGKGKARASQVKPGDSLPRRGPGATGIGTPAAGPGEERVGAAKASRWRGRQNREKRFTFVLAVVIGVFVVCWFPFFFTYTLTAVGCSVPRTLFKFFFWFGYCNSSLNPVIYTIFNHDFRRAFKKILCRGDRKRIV"},
  "source": "paper PMC11215778",
  "about": "(Journal of Medicinal Chemistry, 2024)",
  "data": [
    {"target": "ADRA2A (Homo sapiens, UniProt P08913)", "conditions": "read-out: ADRA2A IC50", "units": {"IC50": "nM"}, "values": [
      {"smiles": "CC(C)OC(=O)[C@@H]1[C@H]2C[C@H]3c4[nH]c5ccccc5c4CCN3C[C@@H]2CC[C@@H]1O", "note": "[Compound 3b, 17-α-Hydroxyyohimban-16-α-carboxylic Acid Isopropyl Ester]", "IC50": 50},
      {"smiles": "CC(C)CCOC(=O)[C@@H]1[C@H]2C[C@H]3c4[nH]c5ccccc5c4CCN3C[C@@H]2CC[C@@H]1O", "note": "[Compound 3c, 17-α-Hydroxyyohimban-16-α-carboxylic Acid (3-Methylbutyl-1-yl) Ester]", "IC50": 144},
      {"smiles": "O=C(OC[C@@H]1CCN1)[C@@H]1[C@H]2C[C@H]3c4[nH]c5ccccc5c4CCN3C[C@@H]2CC[C@@H]1O", "note": "[Compound 4h, 17-α-Hydroxyyohimban-16-α-carboxylic acid (S)-Azetidin-2-ylmethyl Ester]", "IC50": 79},
      {"smiles": "CCOC(=O)[C@@H]1[C@H]2C[C@H]3c4[nH]c5ccccc5c4CCN3C[C@@H]2CC[C@@H]1O", "note": "[Compound 3a, 17-α-Hydroxyyohimban-16-α-carboxylic Acid Ethyl Ester]", "IC50": 31},
      {"smiles": "O=C(OCC1CNC1)[C@@H]1[C@H]2C[C@H]3c4[nH]c5ccccc5c4CCN3C[C@@H]2CC[C@@H]1O", "note": "[Compound 4f, 17-α-Hydroxyyohimban-16-α-carboxylic Acid Azetidin-3-ylmethyl Ester]", "IC50": 59},
      {"smiles": "O=C(OC1CCCC1)[C@@H]1[C@H]2C[C@H]3c4[nH]c5ccccc5c4CCN3C[C@@H]2CC[C@@H]1O", "note": "[Compound 3d, 17-α-Hydroxyyohimban-16-α-carboxylic Acid Cyclopentyl Ester]", "IC50": 108},
      {"smiles": "O=C(OC[C@H]1CCN1)[C@@H]1[C@H]2C[C@H]3c4[nH]c5ccccc5c4CCN3C[C@@H]2CC[C@@H]1O", "note": "[Compound 4g, 17-α-Hydroxyyohimban-16-α-carboxylic Acid (R)-Azetidin-2-ylmethyl Ester]", "IC50": 19},
      {"smiles": "CC(C)(C)OC(=O)[C@@H]1[C@H]2C[C@H]3c4[nH]c5ccccc5c4CCN3C[C@@H]2CC[C@@H]1O", "note": "[Compound 3e, 17-α-Hydroxyyohimban-16-α-carboxylic Acid tert-Butyl Ester]", "IC50": 239},
      {"smiles": "O=C(O[C@@H]1CCNC1)[C@@H]1[C@H]2C[C@H]3c4[nH]c5ccccc5c4CCN3C[C@@H]2CC[C@@H]1O", "note": "[Compound 4k, 17-α-Hydroxyyohimban-16-α-carboxylic Acid (R)-Pyrrolidin-3-yl Ester]", "IC50": 38},
      {"smiles": "CNCCOC(=O)[C@@H]1[C@H]2C[C@H]3c4[nH]c5ccccc5c4CCN3C[C@@H]2CC[C@@H]1O", "note": "[Compound 4c, 17-α-Hydroxyyohimban-16-α-carboxylic Acid 2-(Methylamino)ethyl Ester]", "IC50": 37},
      {"smiles": "O=C(OC1CCCNC1)[C@@H]1[C@H]2C[C@H]3c4[nH]c5ccccc5c4CCN3C[C@@H]2CC[C@@H]1O", "note": "(stereo partly drawn) [Compound 4e, 17-α-Hydroxyyohimban-16-α-carboxylic Acid Piperidine-3-yl Ester]", "IC50": 57},
      {"smiles": "CN1CC[C@H](OC(=O)[C@@H]2[C@H]3C[C@H]4c5[nH]c6ccccc6c5CCN4C[C@@H]3CC[C@@H]2O)C1", "note": "[Compound 4p, 17-α-Hydroxyyohimban-16-α-carboxylic Acid (S)-N-Methylpyrrolidin-3-yl Ester]", "IC50": 23},
      {"smiles": "O=C(OC1CNC1)[C@@H]1[C@H]2C[C@H]3c4[nH]c5ccccc5c4CCN3C[C@@H]2CC[C@@H]1O", "note": "[Compound 4m, 17-α-Hydroxyyohimban-16-α-carboxylic Acid Azetidin-3-yl Ester]", "IC50": 21}
    ]}
  ]
}
